According to patent US7807162B2, “Single domain VHH antibodies against von Willebrand factor” (Ablynx N.V., priority 2005, dated 2010):
Numbering of substitutions follows the chain as printed. One block for each molecule: values may come before it.

Experiments:
vWF [1] = biological target: T1, vWF (Homo sapiens, UniProt P04275); experiment: Analysis in BIACORE for binding to vWF; details: for K-on and K-off rates compared among homologue nanobodies: nanobody 5 μg/ml
Description: vWF was covalently bound to the sensor chip surface via amine coupling. The CM5 surface of the chip was activated by the injection of EDC/NHS (1:1 mix of 0.4 M 1-ethyl-3-(3-dimethylaminopropyl)-carbodiimide and 0.1 M N-hydroxysuccinimide in water) for 7 minutes. Upon activation vWF was injected until an increase of 6000 response units was detected. The excess of reactive groups was deactivated with 1 M Ethanolamine-HCl (pH 8.5) for 7 minutes. The flowrate was kept constant during the immobilization procedure at 5 ul/min. The eluent buffer was 0.01 M HEPES (pH 7,4) with 0.15 M NaCl, 3 mM EDTA and 0.005% Surfactant P20.
The nanobodies 12B6 and 12A5 and their homologue proteins were analysed in BIACORE on vWF at a concentration of the nanobody of 5 μg/ml as shown in FIGS. 4 and 5.
From the set of curves that were generated for each nanobody, only those curves where equilibrium was reached, were used to derive the KD value via steady state affinity.

[2] = Stability at elevated temperatures: concentration of supernatant (OD280) after heating; format: physicochemical
vWF [3] = biological target: T1, vWF; experiment: Stability at elevated temperatures: binding in ELISA to vWF after heating; format: physicochemical; details: 1 hour at different temperatures
Description: A stock solution of nanobodies at a concentration of 200 μg/ml in PBS was prepared and divided into several tubes. Each tube containing nanobody was incubated at different temperatures for 1 hour, then cooled at room temperature for 2 hours and put at 4° C. overnight. The next day, the samples were centrifuged for 30 minutes at 13000 rpm, and the supernatant was tested for OD280 nm. The concentration of supernatants were measured spectrophotometrically and expressed as a percentage of the concentration at room temperature.
The supernatants were also tested in ELISA for binding to vWF as described above in Example 3.
The supernatants were tested in ELISA for binding to vWF as described above in Example 3. The supernatants were applied starting at a 1/100 dilution and 1/5 dilutions were made in PBS. Results are shown in FIG. 12 (12B6), FIG. 13 (12A2) and FIG. 14 (12A5).

baboon vWF = experiment: Cross-reactivity ELISA with vWF from plasma of other species (baboon); format: binding; details: nanobody 10 μg/ml
Description: (§1) A microtiterplate was coated with mouse anti-myc at 1/1000 overnight at 4° C. The plate was washed with PBS-Tween and blocked for two hours at room temperature with PBS-1% casein. After washing, the nanobodies were applied at a concentration of 10 μg/ml in PBS. After a one hour incubation period, the plates were washed and plasma (dog, pig, human, baboon and cynomologues monkey) was applied starting at a five-fold dilution and making further two-fold dilutions in PBS. The plates were incubated for 1 hour at room temperature. The plates were washed and polyclonal anti-vWF-HRP (DAKO) was applied at a 2000-fold dilution for one hour at room temperature. The plates were washed and ABTS/H2O2 substrate was applied. The OD 405 nm was measured.

cynomologues monkey vWF = experiment: Cross-reactivity ELISA with vWF from plasma of other species (cynomologues monkey); format: binding; details: nanobody 10 μg/ml
Description: as §1

pig vWF = biological target: T2, pig vWF (Sus scrofa, UniProt Q28833); experiment: Cross-reactivity ELISA with vWF from plasma of other species (pig); format: binding; details: nanobody 10 μg/ml
T2 construct: plasma (dog, pig, human, baboon and cynomologues monkey) was applied; from tissue; host or cells: pig plasma
Description: as §1

vWF [4] = biological target: T1, vWF; experiment: Cross-reactivity ELISA with vWF from plasma of other species (human); format: binding; parameters: plasma (dog, pig, human, baboon and cynomologues monkey) was applied; from tissue; host or cells: human plasma; details: nanobody 10 μg/ml
Description: as §1

vWF [5] = biological target: T1, vWF; experiment: Binding of nanobodies to vWF in ELISA
[6] = real KD determination, range of nanobody concentrations, Table 14
[7] = 37° C., percentage of the concentration at room temperature, Table 30
[8] = 50° C., percentage of the concentration at room temperature, Table 30
[9] = 60° C., percentage of the concentration at room temperature, Table 30
[10] = 70° C., percentage of the concentration at room temperature, Table 30
[11] = 80° C., percentage of the concentration at room temperature, Table 30
[12] = 90° C., percentage of the concentration at room temperature, Table 30
[13] = RT, OD280 nm concentration of supernatant as percentage of the concentration at room temperature, Table 30
[14] = estimated, nanobody 5 μg/ml on immobilised vWF

B1: 12A2: 12B6 homologue nanobody, SEQ ID NO: 71 (protein)
VHH: QVKLEESGGGLVQAGGALRLSCAASGRTFSYNPMGWFRQAPGKERDLVAAISRTGGSTYYPDSVEGRFTISRDNAKRMVYLQMNNLKPEDTAVYYCAAAGVRAEDGRVRTLPSEYTFWGQGTQVTVSS
Koff (vWF [1]; estimated value, Table 13): 0.00349 s⁻¹
Kon (vWF [1]; estimated value, Table 13): 1.11e+06 M⁻¹ s⁻¹
K-on and K-off rates compared among homologue nanobodies (vWF [1]): best K-on rate
Koff (vWF [1]; [6]): 0.0099 s⁻¹
Kon (vWF [1]; [6]): 2.24e+06 M⁻¹ s⁻¹
Concentration after heating at increasing temperatures ([2]; 37° C., Table 16): 106
Concentration after heating at increasing temperatures ([2]; 37° C., Table 21): 106
Concentration after heating at increasing temperatures [2, 7]: 106%
Concentration after heating at increasing temperatures ([2]; 50° C., Table 16): 104
Concentration after heating at increasing temperatures ([2]; 50° C., Table 21): 104
Concentration after heating at increasing temperatures [2, 8]: 104%
Concentration after heating at increasing temperatures ([2]; 60° C., Table 16): 100
Concentration after heating at increasing temperatures ([2]; 60° C., Table 21): 100
Concentration after heating at increasing temperatures [2, 9]: 100%
Concentration after heating at increasing temperatures ([2]; 70° C., Table 16): 93
Concentration after heating at increasing temperatures ([2]; 70° C., Table 21): 93
Concentration after heating at increasing temperatures [2, 10]: 93%
Concentration after heating at increasing temperatures ([2]; 80° C., Table 16): 87
Concentration after heating at increasing temperatures ([2]; 80° C., Table 21): 87
Concentration after heating at increasing temperatures [2, 11]: 87%
Concentration after heating at increasing temperatures ([2]; 90° C., Table 16): 90
Concentration after heating at increasing temperatures ([2]; 90° C., Table 21): 90
Concentration after heating at increasing temperatures [2, 12]: 90%
Concentration after heating at increasing temperatures ([2]; RT, Table 16): 100
Concentration after heating at increasing temperatures ([2]; RT, Table 21): 100
Concentration after heating at increasing temperatures [2, 13]: 100%
stability at elevated temperatures (binding to vWF in ELISA after heating) (vWF [3]): very stable at elevated temperatures
cross-reactivity with baboon vWF (baboon vWF): cross-reactive
cross-reactivity with cynomologues monkey vWF (cynomologues monkey vWF): cross-reactive
cross-reactivity with pig vWF (pig vWF): cross-reactive
cross-reactivity with human vWF (vWF [4]): cross-reactive

B3: 12A2H4: humanised 12A2 nanobody, SEQ ID NO: 92 (protein)
VHH: EVQLVESGGGLVQPGGSLRLSCAASGRTFSYNPMGWFRQAPGKGRELVAAISRTGGSTYYPDSVEGRFTISRDNAKRSVYLQMNSLRAEDTAVYYCAAAGVRAEDGRVRTLPSEYTFWGQGTQVTVSS
binding to vWF in ELISA (vWF [5]): bind very well
Concentration after heating at increasing temperatures [2, 7]: 100%
Concentration after heating at increasing temperatures [2, 8]: 101%
Concentration after heating at increasing temperatures [2, 9]: 100%
Concentration after heating at increasing temperatures [2, 10]: 99%
Concentration after heating at increasing temperatures [2, 11]: 90%
Concentration after heating at increasing temperatures [2, 12]: 83%
Concentration after heating at increasing temperatures [2, 13]: 100%

Second part, led by results:

Koff (vWF [1]; estimated value, Table 13): 0.00597 s⁻¹
Kon (vWF [1]; estimated value, Table 13): 2.55e+06 M⁻¹ s⁻¹
K-on and K-off rates compared among homologue nanobodies (vWF [1]): best K-on rate
Koff (vWF [1]; [6]): 0.01003 s⁻¹
Kon (vWF [1]; [6]): 2.28e+06 M⁻¹ s⁻¹
cross-reactivity with pig vWF (pig vWF): cross-reactive
cross-reactivity with human vWF (vWF [4]): cross-reactive
B2: 12B6: anti-vWF nanobody, SEQ ID NO: 62 (protein)
VHH: B1 VHH with K3Q, E5V, L47V, P61A, D62R, N85A, T116N
Concentration after heating at increasing temperatures ([2]; 37° C., Table 16): 97
Concentration after heating at increasing temperatures ([2]; 37° C., Table 20): 97
Concentration after heating at increasing temperatures ([2]; 37° C., percentage of the concentration at room temperature, Table 26): 97%
Concentration after heating at increasing temperatures ([2]; 50° C., Table 16): 100
Concentration after heating at increasing temperatures ([2]; 50° C., Table 20): 100
Concentration after heating at increasing temperatures ([2]; 50° C., percentage of the concentration at room temperature, Table 26): 100%
Concentration after heating at increasing temperatures ([2]; 60° C., Table 16): 104
Concentration after heating at increasing temperatures ([2]; 60° C., Table 20): 104
Concentration after heating at increasing temperatures ([2]; 60° C., percentage of the concentration at room temperature, Table 26): 104%
Concentration after heating at increasing temperatures ([2]; 70° C., Table 16): 94
Concentration after heating at increasing temperatures ([2]; 70° C., Table 20): 94
Concentration after heating at increasing temperatures ([2]; 70° C., percentage of the concentration at room temperature, Table 26): 94%
Concentration after heating at increasing temperatures ([2]; 80° C., Table 16): 91
Concentration after heating at increasing temperatures ([2]; 80° C., Table 20): 91
Concentration after heating at increasing temperatures ([2]; 80° C., percentage of the concentration at room temperature, Table 26): 91%
Concentration after heating at increasing temperatures ([2]; 90° C., Table 16): 68
Concentration after heating at increasing temperatures ([2]; 90° C., Table 20): 68
Concentration after heating at increasing temperatures ([2]; 90° C., percentage of the concentration at room temperature, Table 26): 68%
Concentration after heating at increasing temperatures ([2]; RT, Table 16): 100
Concentration after heating at increasing temperatures ([2]; RT, Table 20): 100
Concentration after heating at increasing temperatures ([2]; RT, OD280 nm concentration of supernatant as percentage of the concentration at room temperature, Table 26): 100%
stability at elevated temperatures (binding to vWF in ELISA after heating) (vWF [3]): very stable at elevated temperatures
cross-reactivity with baboon vWF (baboon vWF): cross-reactive
cross-reactivity with cynomologues monkey vWF (cynomologues monkey vWF): cross-reactive

Kd (vWF [1]; [14]): 3.98 nM
Koff (vWF [1]; [14]): 0.00251 s⁻¹
Kon (vWF [1]; [14]): 629000 M⁻¹ s⁻¹
K-on and K-off rates compared among homologue nanobodies (vWF [1]): best K-on and K-off rates
Koff (vWF [1]; [6]): 0.0033 s⁻¹
Kon (vWF [1]; [6]): 1.22e+06 M⁻¹ s⁻¹
Kd (vWF [1]; real KD value, range of nanobody concentrations, Table 14): 2.7 nM
Kd (vWF [1]; wild type and humanised 12A5 nanobodies, Table 37): 1.6 nM
cross-reactivity with human vWF (vWF [4]): cross-reactive
B4: 12A5: anti-vWF nanobody, SEQ ID NO: 60 (protein)
VHH: AVQLVESGGGLVQPGGSLRLSCLASGRIFSIGAMGMYRQAPGKQRELVATITSGGSTNYADPVKGRFTISRDGPKNTVYLQMNSLKPEDTAVYYCYANLKQGSYGYRFNDYWGQGTQVTVSS
Concentration after heating at increasing temperatures ([2]; 37° C., Table 16): 108
Concentration after heating at increasing temperatures ([2]; 37° C., Table 22): 108
Concentration after heating at increasing temperatures ([2]; 37° C., Table 36): 108
Concentration after heating at increasing temperatures ([2]; 50° C., Table 16): 107
Concentration after heating at increasing temperatures ([2]; 50° C., Table 22): 107
Concentration after heating at increasing temperatures ([2]; 50° C., Table 36): 107
Concentration after heating at increasing temperatures ([2]; 60° C., Table 16): 98
Concentration after heating at increasing temperatures ([2]; 60° C., Table 22): 98
Concentration after heating at increasing temperatures ([2]; 60° C., Table 36): 98
Concentration after heating at increasing temperatures ([2]; 70° C., Table 16): 83
Concentration after heating at increasing temperatures ([2]; 70° C., Table 22): 83
Concentration after heating at increasing temperatures ([2]; 70° C., Table 36): 83
Concentration after heating at increasing temperatures ([2]; 80° C., Table 16): 75
Concentration after heating at increasing temperatures ([2]; 80° C., Table 22): 75
Concentration after heating at increasing temperatures ([2]; 80° C., Table 36): 75
Concentration after heating at increasing temperatures ([2]; 90° C., Table 16): 66
Concentration after heating at increasing temperatures ([2]; 90° C., Table 22): 66
Concentration after heating at increasing temperatures ([2]; 90° C., Table 36): 66
Concentration after heating at increasing temperatures ([2]; RT, Table 16): 100
Concentration after heating at increasing temperatures ([2]; RT, Table 22): 100
stability at elevated temperatures (binding to vWF in ELISA after heating) (vWF [3]): very stable at elevated temperatures
cross-reactivity with baboon vWF (baboon vWF): cross-reactive
cross-reactivity with cynomologues monkey vWF (cynomologues monkey vWF): cross-reactive
